From PubChem
SIRT5 inh: sirtuin-5 (human) deacylase inhibition. Purified SirT5, succinyl-peptide AMC, trypsin-coupled fluorescence. inhibition, % at 15 µM. 1.1% of 330,000 active; in the data active means inhibition above about 15%
S100A4 MyoIIA: blocks human S100A4 binding to myosin IIA peptide | S100A4/TAMRA-MyoIIA peptide fluorescence polarization | P26447 | inhibition, % at 10.7 µM | 0.14% of 360,000 active;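 active means mean inhibition of at least 70% across replicates, with every replicate also reaching that level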
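Test system: S100A4 monomer protein; Medium: HEPES pH 7.2 with CaCl2, KCl, NaCl, DTT, Triton; Probe or stimulus: TAMRA-labelled myosin IIA heavy-chain peptide probe, 5 nM; Doses: one dose per compound; Times: polarization read 5 min after assay mix addition, stable 5–60 min; Benchmarks: neutral control DMSO, positive control TFP.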
UUG fidelity: modulators of start codon recognition fidelity in yeast. S. cerevisiae UUG-firefly luciferase reporter, luminescence/redox ratio. activity score, % at 18.7 µM. 0.13% of 350,000 active. AID 602363;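 active = replicate mean at a twofold rise or more, about +100% in these data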;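 also: firefly luciferase made from a UUG start codon reports start codon fidelity; reporter light over untreated wells divided by growth signal over untreated wells; some hits fall short of that in this replicate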
ERp5 block: ERp5 (human) disulfide isomerase inhibition. 0.05% of 350,000 active. inhibition, % at 9.99 µM. ERp5 insulin aggregation, absorbance 650 nm, 90 min. Q15084;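 active means mean replicate inhibition above about 25%, with every replicate also reaching it, limit read from the data, passing the limit was not always enough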
FGF22 binding: shifts melting point of recombinant human FGF22; AID 651658; activity (Tm shift, normalised), % at 9.99 µM; 1.5% of 340,000 active; recombinant FGF22 thermal shift, SYPRO orange fluorescence; percent of sucrose octasulfate shift, DMSO zero;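 active means mean Tm shift, scaled 0 neutral to 100 positive control, at about 1.3% or above, every replicate too, limit read from the data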
PDI inh: inhibitors of human protein disulfide isomerase | P07237 | 0.052% of 350,000 active | PDI insulin aggregation turbidity, A650, 90 min | inhibition, % at 10 µM;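 active means mean inhibition across replicates of 30% or more, whatever share of single replicates reach that level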
* = called active by the depositor; · = not tested or not shown. Rows were chosen to be rich in hits. Some 2.2% of all compounds tested hit in one or more screens of this group.

SMILES	SIRT5 inh	S100A4 MyoIIA	UUG fidelity	ERp5 block	FGF22 binding	PDI inh
CSc1ncccc1C(=O)NCCc1ccccc1	-2.3	-4.0	-15.3	2.9	43.2*	-3.9
O=C(NCCc1csc(-c2ccccc2)n1)c1c(F)cccc1F	3.8	0.0	-2.6	-3.9	-0.2	·
O=C(NCCc1ccccc1)c1n[nH]c(=O)c2ccccc12	5.7	3.4	-10.9	-1.5	43.2*	-0.9
O=C(NCCc1ccccc1)c1c(F)cccc1F	-1.4	-1.8	-19.5	5.5	43.0*	16.0
CCC(=O)Nc1ccc2c(c1)C(=O)N(C)C[C@@H](OC)[C@H](C)CN(Cc1ccncc1)[C@@H](C)CO2	4.4	10.7	·	6.4	0.2	·
O=c1[nH]c2ccccc2c2ccc(Cl)cc12	-2.4	3.2	·	-2.6	-0.1	7.7
O=c1[nH]c2ccc(Cl)cc2c(O)c1Cc1ccccc1	-5.2	-3.4	·	2.6	44.3*	-4.7
O=C1CNC(=S)N1Cc1ccc(F)cc1	·	·	-8.2	·	·	3.8
O=C1CNC(=S)N1Cc1ccccc1	-1.4	0.0	·	-0.6	42.9*	-1.7
COc1ccccc1NC(=O)CSC1=NC(=O)C(NC(C)=O)C(=O)N1 (stereo not drawn)	·	·	-5.6	·	·	1.2
CC(=O)NC1C(=O)N=C(SCC(=O)Nc2ccc(C(F)(F)F)cc2Cl)NC1=O (stereo not drawn)	-0.8	-0.3	·	-2.0	44.3*	-1.3
O=C(O)Cc1c[nH]c2cccc(O)c12	33.2*	-1.8	-16.9	2.8	-0.4	·
COc1ccc(N(CC(=O)Nc2ccc(F)cc2)S(=O)(=O)c2ccccc2[N+](=O)[O-])c(OC)c1	-2.4	-40.7	·	-6.1	43.4*	13.1
O=[N+]([O-])c1ccccc1/C=C/c1ccncc1	0.1	8.2	-1.8	-0.6	-0.2	·
C[C@H]1CN([C@@H](C)CO)S(=O)(=O)c2ccc(C#CC(C)(C)O)cc2O[C@H]1CN(C)Cc1ccc(-c2ccccc2)cc1	23.3*	-0.5	3.6	1.1	-0.5	·
C[C@H](CO)N1C[C@H](C)[C@H](CN(C)Cc2ccc(-c3ccccc3)cc2)Oc2cc(C#CC(C)(C)O)ccc2S1(=O)=O	19.9*	3.2	-1.9	4.2	-0.8	·
C[C@H]1CN([C@@H](C)CO)S(=O)(=O)c2ccc(C#CC(C)(C)O)cc2O[C@H]1CN(C)Cc1ccccc1	-4.4	12.3	-12.8	-0.8	0.3	9.4
C[C@@H]1CN([C@H](C)CO)S(=O)(=O)c2ccc(C#CC(C)(C)O)cc2O[C@@H]1CN(C)Cc1ccc(-c2ccccc2)cc1	20.4*	0.6	-16.8	4.8	-0.6	·
C[C@H]1CN([C@@H](C)CO)S(=O)(=O)c2ccc(C#CC(C)(C)O)cc2O[C@@H]1CN(C)Cc1ccc(-c2ccccc2)cc1	19.6*	-7.2	-8.8	3.9	-0.9	·
C[C@H](CO)N1C[C@H](C)[C@@H](CN(C)Cc2ccc(-c3ccccc3)cc2)Oc2cc(C#CC(C)(C)O)ccc2S1(=O)=O	-3.1	0.9	-0.7	3.5	-0.4	·
C[C@@H]1CN([C@H](C)CO)S(=O)(=O)c2ccc(C#CC(C)(C)O)cc2O[C@H]1CN(C)Cc1ccccc1	1.6	-6.8	9.4	7.7	-0.2	·
Cc1ccccc1S(=O)(=O)NCC[C@H]1CC[C@H](NC(=O)C2CC2)[C@@H](CO)O1	2.9	17.2	-6.2	-3.1	0.3	·
CC(=O)N[C@H]1CC[C@@H](CCNC(=O)C2CC2)O[C@@H]1CO	0.2	-28.9	-20.6	-2.4	-0.1	·
CCN(CC)CCNC(=O)c1ccc(NC(=O)/C=C/c2ccc3ccccc3n2)cc1	-0.3	-11.1	-18.1	-11.0	1.6*	-1.4
Cc1ccc(S(=O)(=O)OCC(=O)Nc2ccc(C(=O)O)c(O)c2)cc1	53.4*	-1.0	·	-6.2	0.9	3.7
(further entries)
SMILES	SIRT5 inh	S100A4 MyoIIA	UUG fidelity	ERp5 block	FGF22 binding	PDI inh
Cc1ccc(NC(=O)COCC(=O)Nc2ccc(C)cc2)cc1	0.0	4.1	-12.1	1.5	0.0	-1.6
Cc1cccc(OC(=O)Nc2ccc(C(=O)O)c(O)c2)c1	34.7*	-11.5	-10.9	-11.9	0.9	-6.7
COc1ccc2c3c(n(C)c2c1)[C@@H](CO)N(C(=O)Nc1ccc(F)cc1)CC31CCN(S(=O)(=O)c2cccc(F)c2)CC1	-1.5	4.9	·	-8.5	0.0	·
C[C@H](CO)N1C[C@H](C)[C@@H](CN(C)C(=O)c2cnccn2)Oc2ncc(-c3cccc(C#N)c3)cc2C1=O	·	5.4	-6.1	2.4	0.1	·
O=S(=O)(N[C@@H]1CC[C@H](CCn2cc(Cc3ccccc3)nn2)O[C@@H]1CO)c1ccccc1F	0.7	2.2	·	-2.4	0.3	·
CCCc1cn(CC[C@H]2CC[C@H](NS(=O)(=O)c3ccccc3Cl)[C@H](CO)O2)nn1	4.3	8.5	-1.0	-2.1	-0.2	·
O=S(=O)(N[C@@H]1CC[C@@H](CCn2cc(Cc3ccccc3)nn2)O[C@H]1CO)c1ccccc1F	19.8*	-9.2	·	2.7	0.6	·
CCCc1cn(CC[C@@H]2CC[C@H](NS(=O)(=O)c3ccccc3Cl)[C@@H](CO)O2)nn1	5.9	96.7*	42.6	0.0	-0.3	·
CCCNC(=O)C[C@@H]1CC[C@@H]2[C@H](COC[C@H](O)CN2C(=O)Nc2ccc3c(c2)OCO3)O1	3.1	15.0	-7.4	-10.4	0.0	·
COc1cc(OC)cc(C(=O)NCC(=O)OCC(=O)N2c3ccccc3NC(=O)C2(C)C)c1	0.8	-4.4	·	8.5	43.9*	-6.1
O=C(O)c1cccc(-n2cccc2/C=C2/NC(=O)N(c3cccc(Cl)c3)C2=O)c1	9.2	3.2	·	-8.7	0.0	-1.3
O=C(O)c1cccc(-n2cccc2/C=C2/NC(=O)N(c3ccc(Cl)cc3)C2=O)c1	43.9*	-3.4	·	19.1	·	3.2
CCCC(=O)Nc1ccc2c(c1)C(=O)N(C)[C@@H]1CC[C@@H](CC(=O)NCc3ccccc3)O[C@H]1CO2	2.1	2.0	-3.3	0.9	0.1	·
CC(C)(C)c1ccccc1OCCCCCn1ccnc1	-6.7	6.1	·	-0.4	43.9*	2.2
Cc1ccc(C(C)(C)C)c(OCCCn2ccnc2)c1	-1.6	5.1	·	1.6	0.1	-3.7
CCCNC(=O)N1[C@@H](CO)[C@@H](c2ccccc2)[C@@H]1CNC(=O)c1cccc(F)c1	6.0	49.9	11.6	-14.0	-0.2	·
Fc1ccc(-c2nc3c(-c4ccccc4)cnn3cc2CCN2CCOCC2)cc1	0.7	1.1	·	0.3	-0.3	-3.7
Fc1ccc(-c2nc3c(-c4ccc(F)cc4)cnn3cc2CCN2CCOCC2)cc1	2.5	3.5	-8.5	2.2	42.9*	-2.6
C[C@@H]1CN([C@H](C)CO)C(=O)c2cccc(NS(=O)(=O)c3ccc(Cl)cc3)c2O[C@@H]1CN(C)Cc1ccc(C(F)(F)F)cc1	2.4	-33.1	-3.3	28.1*	0.1	·
C[C@@H]1CN([C@@H](C)CO)C(=O)c2cccc(NS(=O)(=O)c3cn(C)cn3)c2O[C@H]1CN(C)Cc1ccc(C(F)(F)F)cc1	21.2*	5.7	-2.7	0.7	0.1	·

In a second layout: entries from further up
Under each structure: SIRT5 inh	S100A4 MyoIIA	UUG fidelity	ERp5 block	FGF22 binding	PDI inh
COc1ccc2c3c(n(C)c2c1)[C@@H](CO)N(C(=O)Nc1ccc(F)cc1)CC31CCN(S(=O)(=O)c2cccc(F)c2)CC1
    -1.5	4.9	·	-8.5	0.0	·
C[C@H](CO)N1C[C@H](C)[C@@H](CN(C)C(=O)c2cnccn2)Oc2ncc(-c3cccc(C#N)c3)cc2C1=O
    ·	5.4	-6.1	2.4	0.1	·
O=S(=O)(N[C@@H]1CC[C@H](CCn2cc(Cc3ccccc3)nn2)O[C@@H]1CO)c1ccccc1F
    0.7	2.2	·	-2.4	0.3	·
CCCc1cn(CC[C@H]2CC[C@H](NS(=O)(=O)c3ccccc3Cl)[C@H](CO)O2)nn1
    4.3	8.5	-1.0	-2.1	-0.2	·
O=S(=O)(N[C@@H]1CC[C@@H](CCn2cc(Cc3ccccc3)nn2)O[C@H]1CO)c1ccccc1F
    19.8*	-9.2	·	2.7	0.6	·
